# In PubChem BioAssay AID463254 (National Center for Advancing Translational Sciences (NCATS), 2010):
# By UniProt entry, the sequences of proteins in these tests, tags left out. Where a name states a change or a piece, a line headed by the entry shows the natural chain unless it says otherwise.
# UniProt O75604: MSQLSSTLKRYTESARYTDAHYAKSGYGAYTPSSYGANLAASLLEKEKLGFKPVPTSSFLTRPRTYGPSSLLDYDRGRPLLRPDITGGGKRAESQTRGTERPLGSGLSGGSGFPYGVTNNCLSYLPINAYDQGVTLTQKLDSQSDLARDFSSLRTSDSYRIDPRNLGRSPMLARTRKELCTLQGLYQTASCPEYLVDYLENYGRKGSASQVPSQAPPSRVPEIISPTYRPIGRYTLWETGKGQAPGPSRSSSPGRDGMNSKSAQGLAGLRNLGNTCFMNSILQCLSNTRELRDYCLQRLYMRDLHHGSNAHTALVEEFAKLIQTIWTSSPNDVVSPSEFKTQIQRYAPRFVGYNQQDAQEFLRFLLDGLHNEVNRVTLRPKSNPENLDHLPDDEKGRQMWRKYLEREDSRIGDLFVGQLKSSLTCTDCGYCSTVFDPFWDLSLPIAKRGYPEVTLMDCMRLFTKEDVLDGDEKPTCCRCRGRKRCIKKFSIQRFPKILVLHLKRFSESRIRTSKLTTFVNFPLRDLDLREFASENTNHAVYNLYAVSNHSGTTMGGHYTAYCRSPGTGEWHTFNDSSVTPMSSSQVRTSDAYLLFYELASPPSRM
# This is a selection; strong and weak results do not stand in their true shares. Calls of active or inactive are those of the source. Calls come from the whole dose curve; as a rule, active = well fitted inhibition curve with a large enough effect; inconclusive = small, poorly fitted or top-dose-only effect, or effect the other way; inactive = flat fitted curve, though single readings scatter.
# Molecular target: Ubiquitin carboxyl-terminal hydrolase 2 (Homo sapiens) (UniProt O75604)
# Assay: qHTS Assay for Inhibitors of Ubiquitin-specific Protease USP2a Using CHOP2 as the Reporter
# Settings: USP2 core, Ub-CHOP2 coupled fluorogenic reporter, 485/531; at 38.3 µM (top of the series)
# Source text: NIH Molecular Libraries Screening Centers Network [MLSCN] NIH Chemical Genomics Center [NCGC] MLSCN Grant: XO1-MH079852-01 PI Name: Nicholson, Ben. Progenra Inc, Malvern, PA NCGC Assay Overview: Homeostasis of cellular proteins is maintained through a combination of synthesis and degradation. The pathway that accounts for the majority of protein degradation is the ubiquitin-proteasomal pathway. Ubiquitin (Ub) is highly conserved in all cells and the generation of a multi-Ub chain typically targets proteins for degradation by the proteasome. However, ubiquitination is highly reversible and dynamic. Deubiquitination, the reverse process, is catalyzed through the action of enzymes referred to as isopeptidases or deubiquitinating enzymes (DUBs). This group of enzymes is collectively responsible for maintaining adequate pools of free ubiquitin and regulating the ubiquitination status of cellular proteins. The class of DUBs referred to as the ubiquitin-specific proteases (USP) family functions endoproteolytically to cleave Ub chains from a wide range of protein substrates. USP2a deubiquitinates fatty acid synthase (FASN) which has recently been identified as an emerging oncology target. To identify inhibitors of USP2a a cell-free assay was employed. […] The reporter enzyme chosen is an enterokinase called CHOP2, which is activated when the Ub is cleaved by USP2. The free and now activated reporter can subsequently act on its reporter substrate. Thus, this coupled assay gives a fluorescent read-out at excitation/emission wavelengths of 485/531. The assay was developed by Progenra, Inc. and has been licensed for sale by LifeSensors, Inc. as Ub-CHOP2-Reporter-Kit (#PR1101).
# NCGC Assay Protocol Summary: The assay buffer, prepared fresh at the day of the assay, contains 20mM Tris-HCl pH 8.0, 2mM CaCl2, 2mM beta-Mercaptoethanol, 0.05% CHAPS. 3ul of 20nM (10nM final) USP2 core, which is stored on ice, is dispensed into a medium-binding black solid Kalypsys 1,536 well plate using the Kalypsys dispenser. The assay plate is then pinned with 23nL compound with the Kalypsys pintool in columns 5-48. The controls are pinned as follows: column 1 two-fold dilutions of 2M NEM in duplicate; column 2 2M NEM (final concentration 38.2mM); column 3&4 DMSO. The assay plate is incubated at RT for 30min. Subsequently, 1.5uL of 100nM (25nM final) Ub-CHOP2 and 1.5uL of 100nM (25nM final) Reporter Substrate (both stored on ice and protected from light) were dispensed into the plate using the Kalypsys dispenser. Plates were read after 60min RT incubation on a ViewLux (Perkin Elmer) plate reader using the following wavelengths Ex 485nm /Em 531nm. Data were normalized to the to AC100 inhibition (NEM). Concentration-response curves were fitted to the normalized data and the concentration-response curves were then classified based on curve quality (r2), response magnitude and degree of measured activity. The time zero reading was used to flag fluorescence artifacts. Keywords: ubiquitination, deubiquitination, proteases, profluorescent, MLSMR, MLPCN, NIH Roadmap, qHTS, NCGC
row,SMILES,"activity change, negative = inhibition"
1,O=[N+]([O-])c1ccc2c(c1)nnn2O,inactive: 0.0811%
2,N#CCCN(C(=O)COC(=O)C(O)(c1ccccc1)c1ccccc1)c1ccc(F)cc1,inactive: 0.768%
3,CN(C(=O)Cc1ccccc1)[C@@H]1CC[C@]2(CCCO2)C[C@H]1N1CCCC1,inactive: -4.07%
4,CCOP1(=S)c2c(C)nn(CCC#N)c2N=C(c2ccc(F)cc2)N1C (centres undefined),inactive: 2.75%
5,NC(=O)Nc1ccc([As](=O)(O)O)cc1,inactive: 7.08%
6,O=C(O)COc1ccc([As](=O)(O)O)cc1[N+](=O)[O-],inactive: 0.802%
7,Nc1ccccc1[As](=O)(O)c1ccccc1,inactive: 11.7%
8,CS(=O)(=O)c1cc([N+](=O)[O-])c2no[n+]([O-])c2c1,inactive: 2.67%
9,CCOP1(=S)c2c(C)nn(CCC#N)c2N=C(c2ccccc2F)N1C (centres undefined),inactive: 1.94%
10,O=P(Nc1nccs1)(Oc1ccccc1)Oc1ccccc1,inactive: -4.53%
11,O=P(Nc1nccs1)(c1ccccc1)c1nc2ccccc2s1 (centres undefined),inactive: -0.143%
12,COc1cc(C2NCCC3(OCCO3)C2(C)C)cc(OC)c1OC (centres undefined),inactive: 3.25%
13,CCOP(=O)(Nc1cccc2ccccc12)OCC,inactive: 2.07%
14,CCCOP(=S)(Nc1nc(N)cc(=O)[nH]1)OCCC,inactive: -5.39%
15,Cc1ccc(NCCc2c([N+](=O)[O-])cc([N+](=O)[O-])cc2[N+](=O)[O-])cc1,inactive: -0.581%
16,O=[As](O)(c1cccc(O)c1)c1cccc(O)c1,inactive: 3.21%
17,O=[As](O)(O)c1cccnc1,inactive: 0.349%
18,COc1cc(C(=O)NCC2(N3CCOCC3)CCCCC2)cc(Cl)c1OC(C)C,inactive: 1.33%
19,CS(=O)(=O)c1ccc(Cl)c(NC(=O)COC(=O)C(O)(c2ccccc2)c2ccccc2)c1,inactive: 3.74%
20,O=C(OC1CN2CCC1CC2)c1ccc(Cl)cc1 (centres undefined),inactive: -1.36%
21,O=[As](O)(c1ccccc1Br)c1ccccc1Br,inactive: -1.75%
22,CN(C(=O)Cc1ccc(Cl)c(Cl)c1)[C@@H]1CCCC[C@H]1N1CCCC1,inactive: 3.49%

row,SMILES,"activity change, negative = inhibition"
1,CC(C)/C=N\N=C(\N)N[N+](=O)[O-],inactive: -0.377%
2,COc1ccccc1CNC(=O)COC(=O)C(O)(c1ccccc1)c1ccccc1,inactive: 0.0629%
3,Clc1n[nH]nc1-c1nn[nH][15n]1,inactive: -0.626%
4,CC(C)(C)C(=O)NC(Sc1ncccn1)C(Cl)(Cl)Cl (centres undefined),inactive: 2.24%
5,CCOP(=O)(Nc1ccc(C)cn1)OCC,inactive: 6.07%
6,CCC1=CC2Cc3nc4ccc(Cl)cc4c(N)c3C(C1)C2 (centres undefined),inactive: 0.812%
7,O=P1(Nc2ccccn2)COc2ccccc2OC1,inactive: 1.12%
8,CCOP(=O)(NC(=NC(C)c1ccccc1)NC(C)c1ccccc1)OCC (centres undefined),inactive: -0.731%
9,Cc1ccc(OCC(=O)OC2CN3CCC2CC3)cc1 (centres undefined),inactive: 0.568%
10,O=[As](O)(c1cccs1)c1cccs1,inactive: 18.7%
11,NS(=O)(=O)c1cccc(NC(=O)COC(=O)C(O)(c2ccccc2)c2ccccc2)c1,inactive: 3.07%
12,O=P1(Nc2ccc(Br)cn2)COc2ccccc2OC1,inactive: -1.64%
13,Nc1cccc([As](=O)(O)c2ccccc2)c1,inactive: 10.9%
14,O=P1(Nc2ncccn2)COc2ccccc2OC1,inactive: -1.5%
15,O=C(/C=C/c1ccccc1)OC1CN2CCC1CC2 (centres undefined),inactive: 8.65%
16,CN(C)C1(CNC(=O)c2ccc(S(C)(=O)=O)cc2)CCCCC1,inactive: 0.318%
17,Cc1nn(-c2ccccc2)c2c1P(=O)(N1CCOCC1)N(C)C(c1ccccc1)=N2 (centres undefined),inactive: -0.314%
18,Cc1ccc(C(=O)OC2CN3CCC2CC3)cc1 (centres undefined),inactive: 6.37%
19,CC1CCC(C(C)C)C(OP(=O)(Nc2ccccn2)c2ccccc2)C1 (centres undefined),inactive: 0.679%
20,O=[N+]([O-])c1ccc(Nc2ccc(Oc3ccc([N+](=O)[O-])cc3[N+](=O)[O-])cc2)c([N+](=O)[O-])c1,inactive: 0.573%
21,Cc1cc(SC(NC=O)C(Cl)(Cl)Cl)ncn1 (centres undefined),inactive: -2.18%
22,O=P(Nc1ccccn1)(c1cccc2ccccc12)c1cccc2ccccc12,inactive: 0.836%

row,SMILES,"activity change, negative = inhibition"
1,CCOC(=O)Nc1cccc([As](=O)(O)O)c1,inactive: 4.08%
2,CCCCOc1ccc(C(=O)NCC2(N3CCCCC3)CCCCC2)cc1OC,inactive: 1.09%
3,Cc1cc(SC(NC(=O)c2ccccc2)C(Cl)(Cl)Cl)nc(C(C)C)n1 (centres undefined),inactive: -1.15%
4,CCOC(=O)Nc1ccc([As](=O)(O)O)c(O)c1,inactive: 1.24%
5,CCC(C)N(CC(C)C)C(=S)SC(NC(C)=O)C(Cl)(Cl)Cl (centres undefined),inactive: 0.889%
6,CCOC(=O)c1ccc(NC(=O)C(C)(CCl)SC)cc1 (centres undefined),inactive: 1.83%
7,O=C(OC1CN2CCC1CC2)c1cccc([N+](=O)[O-])c1 (centres undefined),inactive: -1.37%
8,O=C(COc1ccccc1)OC1CN2CCC1CC2 (centres undefined),inactive: 0.522%
9,O=C(Nc1ccncc1[N+](=O)[O-])c1ccc([N+](=O)[O-])cc1[N+](=O)[O-],inactive: -0.449%
10,COP1(=S)c2c(C)nn(CCC#N)c2N=C(c2ccc(F)cc2)N1C (centres undefined),inactive: 1.1%
11,COc1ccc(N/C(=N/P(=O)(N2CCOCC2)N2CCOCC2)N2CCOCC2)cc1,inactive: 8.36%
12,COc1ccc2nc(NP(=O)(c3ccccc3)c3ccccc3)sc2c1,inactive: -0.416%
13,COc1cc(I)ccc1[As](=O)(O)O,inactive: -0.881%
14,O=C(OC1CN2CCC1CC2)C12CC3CC(CC(C3)C1)C2 (centres undefined),inactive: 1.77%
15,Cc1cc(=O)[nH]c(N[N+](=O)[O-])n1,inactive: 12%
16,Cc1c2c(nc3ccccc13)SC(C(Cl)Cl)C2 (centres undefined),inactive: 3.22%
17,CC(C)NC(=O)NP(=O)(Oc1ccccc1)Oc1ccccc1,inactive: -4.68%
18,CCN(CC)C(=S)SC(NC=O)C(Cl)(Cl)Cl (centres undefined),inactive: 4.01%
19,O=[N+]([O-])c1cc([N+](=O)[O-])c(-c2ccn[nH]2)s1,inactive: 2.38%
20,CC(C)c1ccc(OP(=O)(Nc2ccccn2)Oc2ccccc2F)cc1 (centres undefined),inactive: 1.11%
